Measured values taken from article PMC5439695 (PLoS ONE, 2017).

Tested on: mitochondrial membrane potential (MMP)

Substance | disrupt MMP
1-Ethyl-3-methylimidazolium diethylphosphate | 4.83 log10(M)*-1
Triethyltin bromide | 7.97 log10(M)*-1
